Results on 63 compounds are retold here after PubChem BioAssay AID540253 (National Center for Advancing Translational Sciences (NCATS), 2011).

Only a part is listed here, and it is no random draw. Results filed as inconclusive are left out. Active and inactive are the calls of the source. Calls follow the shape of the full dose curve.

The assay addresses Snurportin-1 (Homo sapiens) + GTP-binding nuclear protein Ran (Homo sapiens) + Importin subunit beta-1 (Homo sapiens) (UniProt O95149+P62826+Q14974). The experiment in a line: qHTS Assay for Inhibitors of RanGTP induced Rango (Ran-regulated importin-beta cargo) - Importin beta complex dissociation. Also: % of control where 0% means no effect; nearly all actives have a fitted effect of over 45% in size. The note with it: Biochemical FRET Rango-importin beta; at 46.1 µM (top of the series). (In general: Quantitative high-throughput screening tests each substance at several concentrations.)
`CP(=O)(OC12CC3CC(CC(C3)C1)C2)OC12CC3CC(CC(C3)C1)C2`: the activity change, negative = inhibition was inactive: -4.59%.

Regarding `CC(C)(C)C(=O)NC(Sc1ccncn1)C(Cl)(Cl)Cl` (stereo not drawn), the activity change, negative = inhibition is inactive: 17.6%. Turning to `O=[N+]([O-])c1ncn(CCn2ncnc2[N+](=O)[O-])n1`, the activity change, negative = inhibition was inactive: -8.34%.

For `COC(=O)C1(C)COP(=O)(Nc2ccccc2)OC1` (stereo not drawn), the activity change, negative = inhibition is inactive: -2.37%. In the case of `O=[N+]([O-])c1cccc(NC2=NCC(CBr)S2)c1` (stereo not drawn), the activity change, negative = inhibition was inactive: -1.67%. `O=C(O)CNc1ccc([As](=O)(O)O)cc1`: the activity change, negative = inhibition was inactive: -4.11%. The result for `CCN(CC)CC(O)COC(=O)C(O)(c1ccccc1)C1CCCCC1` (stereo not drawn) reads inactive: -20.3%. As for `COc1ccc(C2=NCC(CBr)S2)cc1` (stereo not drawn), the activity change, negative = inhibition is inactive: 0.44%. The result for `COc1ccc(OP(C)(=O)Nc2ccc(Br)cc2)cc1` (stereo not drawn) reads inactive: 7.71%; that for `O=[N+]([O-])c1cccc2n[nH]nc12`, inactive: 0.559%. With `CC(=O)N1C2C3N(C(C)=O)C1C1N(C(C)=O)C(C(N1C(C)=O)N3C(C)=O)N2C(C)=O`, the activity change, negative = inhibition is inactive: -3.56%. The result for `COc1ccccc1OP(C)(=O)Nc1c(C)n(C)n(-c2ccccc2)c1=O` (stereo not drawn) reads inactive: -18.5%; that for `O=C(OCCCN1CCCC1)C(O)(c1ccccc1)C1CCCCC1` (stereo not drawn), inactive: 6.09%; that for `Cc1ccc(NP(=O)(Oc2ccccc2)Oc2ccccc2)nc1`, inactive: 14.6%. On to `CP(=O)(Oc1ccccc1)N1CCOC1=O` (stereo not drawn), for which the activity change, negative = inhibition was inactive: 0.351%.

For the compound `CCc1ccc(OP(C)(=O)Nc2cccnc2)cc1` (stereo not drawn), the activity change, negative = inhibition is inactive: -1.9%. For the compound `CCc1nc2c(n1)c1c(non1O)c1c2no[n+]1[O-]`, the activity change, negative = inhibition is inactive: -3.66%. Take `O=[N+]([O-])c1cc([N+](=O)[O-])c(CCNc2ccccc2)c([N+](=O)[O-])c1`: the activity change, negative = inhibition was inactive: -6.24%. As for `COc1ccccc1OP(C)(=O)Nc1ccccc1Br` (stereo not drawn), the activity change, negative = inhibition was inactive: 2.66%. As to `CC(C)(C)c1ccc(OP(C)(=O)O)cc1`, the activity change, negative = inhibition is inactive: -6.9%. The result for `Nc1ccc([As](=O)(O)c2ccc(N)cc2)cc1` reads inactive: 0.728%; that for `C[N+]1=C2C=CC=CC=C2SC12C([N+](=O)[O-])=CC([N+](=O)[O-])=C[C-]2[N+](=O)[O-]` (stereo not drawn), inactive: 13.5%. The result for `CCN(/C(=N/P(=O)(N1CCOCC1)N1CCOCC1)N1CCOCC1)c1ccc(OC)cc1` reads inactive: -0.558%; that for `CP(=O)(Nc1ccc(Cl)cc1)Oc1ccc(F)cc1` (stereo not drawn), inactive: -16.6%; that for `CN(C)C(=O)c1c([N+](=O)[O-])cc([N+](=O)[O-])cc1[N+](=O)[O-]`, inactive: -14%. Regarding `CC(C)=N/N=C(\N)N[N+](=O)[O-]`, the activity change, negative = inhibition was inactive: 9.39%. The result for `CN(C)C(=O)OCCc1n(C)cc[n+]1C` reads inactive: -8.84%; that for `CC1CCN(C(=O)Oc2c(Cl)cc(Cl)c3cccnc23)CC1`, inactive: -5.33%; that for `NC(=O)c1cc([N+](=O)[O-])cc([N+](=O)[O-])c1N`, inactive: 25%. Regarding `CN(C(=O)Cc1ccc(Cl)c(Cl)c1)[C@H]1CCCC[C@H]1N1CCCC1`, the activity change, negative = inhibition is inactive: 9.53%. As for `COc1ccccc1OP(C)(=O)Nc1ccc(Br)cc1` (stereo not drawn), the activity change, negative = inhibition was inactive: 7.03%. `Cc1ccc(N/C(=N/P(=O)(N2CCOCC2)N2CCOCC2)N2CCOCC2)cc1`: the activity change, negative = inhibition was inactive: 1.92%. The result for `COc1ccccc1OP(=O)(Nc1ccc(C)cn1)Oc1ccccc1OC` reads inactive: 7.37%; that for `COc1ccc(OP(C)(=O)Nc2ccccn2)cc1` (stereo not drawn), inactive: 20.9%. For the compound `Cc1ccc(OP(=O)(Nc2nccs2)Oc2ccc(C)cc2)cc1`, the activity change, negative = inhibition is inactive: 12.1%.

Regarding `CN1CCCC(OC(=O)C(c2ccccc2)c2ccccc2)C1` (stereo not drawn), the activity change, negative = inhibition is inactive: -1.35%.

Regarding `Clc1ccc(Cl)c(NC2=NCC(CBr)S2)c1` (stereo not drawn), the activity change, negative = inhibition is inactive: -7.95%. On to `CN(C)CCOC(=O)C(O)(c1ccccc1)C1CCCC1` (stereo not drawn), for which the activity change, negative = inhibition is inactive: -19.2%.

Turning to `Cc1c(NP(C)(=O)Oc2ccc(C(C)C)cc2)c(=O)n(-c2ccccc2)n1C` (stereo not drawn), the activity change, negative = inhibition is inactive: 14%. Regarding `Nc1cc(N)c2nonc2c1[N+](=O)[O-]`, the activity change, negative = inhibition is inactive: -4.81%. Consider `CC(C)CC(=O)NC(Sc1ccc(Cl)cc1)C(Cl)(Cl)Cl` (stereo not drawn), for which the activity change, negative = inhibition is inactive: 3.63%. For `O=[N+]([O-])c1cc([N+](=O)[O-])c(Nc2ccccn2)c([N+](=O)[O-])c1`, the activity change, negative = inhibition was inactive: 0.499%.

As for `Oc1ccccc1CNc1ccccn1`, the activity change, negative = inhibition is inactive: 0.382%. `O=C(NC(Sc1ccncn1)C(Cl)(Cl)Cl)c1ccccc1` (stereo not drawn): the activity change, negative = inhibition was inactive: 7.91%. `CP(=O)(Nc1ccccn1)Oc1ccccc1` (stereo not drawn): the activity change, negative = inhibition was inactive: -9.8%. Consider `COc1ccccc1OP(C)(=O)Nc1ccc(C)cc1C` (stereo not drawn), for which the activity change, negative = inhibition was inactive: -3.23%. The result for `CCc1ccc(OP(C)(=O)O)cc1` reads inactive: 7.77%; that for `CC(=O)Nc1ccc([As](=O)(O)O)cc1`, inactive: 0.87%; that for `O=C(O)c1ccccc1[As](=O)(O)O`, inactive: 9.52%. The result for `CCCC1OP(N)(=O)OCC1CC` (stereo not drawn) reads inactive: -1.74%. Take `O=P(Nc1nc2ccc(Cl)cc2s1)(c1ccccc1)c1ccccc1`: the activity change, negative = inhibition was inactive: 2.64%. As to `Cc1cc(C)cc(OP(C)(=O)Nc2cccc(C(F)(F)F)c2)c1` (stereo not drawn), the activity change, negative = inhibition was inactive: -0.32%.

With `Cc1cc(SC(NC(=O)c2ccc(F)cc2)C(Cl)(Cl)Cl)ncn1` (stereo not drawn), the activity change, negative = inhibition is inactive: -3.66%. Turning to `CCOP(=O)(Nc1ccccc1)OCC`, the activity change, negative = inhibition was inactive: -1.27%. As for `COc1ccccc1OP(C)(=O)Nc1ccc(C)c(C)c1` (stereo not drawn), the activity change, negative = inhibition was inactive: 1.64%. Consider `Cc1ccc(NP(=O)(Oc2ccccc2F)Oc2ccccc2F)nc1`, for which the activity change, negative = inhibition was inactive: 3.75%. Turning to `CN(C(=O)Cc1ccc(Cl)c(Cl)c1)[C@H]1CCCC[C@@H]1N1CCCC1`, the activity change, negative = inhibition is inactive: 0.25%.

Take `COc1ccc(OP(C)(=O)Nc2ccccc2Br)cc1` (stereo not drawn): the activity change, negative = inhibition was inactive: -12%. The result for `CCN(N=Nc1nonc1N)c1nonc1N` reads inactive: 25%. For the compound `Nc1cccc2ccc([As](=O)(O)O)cc12`, the activity change, negative = inhibition is inactive: -12.2%.

In the case of `CP(=O)(Nc1ccc(Cl)cc1Cl)Oc1ccccc1` (stereo not drawn), the activity change, negative = inhibition is inactive: -1.16%. In the case of `CCCCCCCCCCCCCCCC1C[N+](C)(C)CCOP(C)(=O)O1` (stereo not drawn), the activity change, negative = inhibition is inactive: 1.5%. The result for `CP(=O)(OCCOc1ccccc1)OCCOc1ccccc1` reads inactive: 8.13%.
